# Measured values published in patent US11065492B2, “Controlled medication denaturing composition and method” (priority 2018, dated 2021).
# Assay: Degradation of controlled substances in halogenated oxidants: DCI (Example 5)
# Settings: 500 μL 100 μg/mL drug + 500 μL 20% sodium dichloroisocyanurate dihydrate (DCI), approximately 2 hours, LC-MS
row,Compound,Degradation of controlled substance treated with 20% DCI
1,CCCC(C)C1(CC)C(=O)NC(=O)NC1=O (centres unmarked),95%
2,CNC1(c2ccccc2Cl)CCCCC1=O (centres unmarked),100%
3,CN[C@@H](C)Cc1ccccc1,100%
4,CCOC(=O)C1(c2ccccc2)CCN(C)CC1,100%
5,CN1C(=O)CN=C(c2ccccc2)c2cc(Cl)ccc21,100%
6,CC(N)Cc1ccccc1 (centres unmarked),100%
7,COC(=O)[C@H]1[C@@H](OC(=O)c2ccccc2)C[C@@H]2CC[C@H]1N2C,100%

# Assay: Effects of different oxidants on morphine (Example 2)
# Settings: 1% KMNO4, 8.25% sodium hypochlorite (household bleach), 32% peracetic acid; approximately 2 hours
row,Compound,"denaturation/degradation of morphine by oxidant, in words"
1,Potassium Permanganate,effectively denatured/degraded

# Same assay, conditions: 500 μL oxidant solution (concentration per oxidant in column % SOLUTION CONCENTRATION; 250 μL for nitric and peracetic acid) + 500 μL 100 μg/mL morphine in methanol, approximately 2 hours
row,Compound,% MORPHINE DENATURED
1,Potassium Permanganate,100%
2,Potassium chromate,10%
3,Sodium chlorite,90%
